Patent US20230348459A1, “PYRROLIDINE COMPOUND AND USE THEREOF” (SIMCERE PHARMACEUTICAL CO., LTD., priority 2020, published 2023)

Chains of the proteins cited; added tags and fusions are not shown.
UniProt P03372, whole entry: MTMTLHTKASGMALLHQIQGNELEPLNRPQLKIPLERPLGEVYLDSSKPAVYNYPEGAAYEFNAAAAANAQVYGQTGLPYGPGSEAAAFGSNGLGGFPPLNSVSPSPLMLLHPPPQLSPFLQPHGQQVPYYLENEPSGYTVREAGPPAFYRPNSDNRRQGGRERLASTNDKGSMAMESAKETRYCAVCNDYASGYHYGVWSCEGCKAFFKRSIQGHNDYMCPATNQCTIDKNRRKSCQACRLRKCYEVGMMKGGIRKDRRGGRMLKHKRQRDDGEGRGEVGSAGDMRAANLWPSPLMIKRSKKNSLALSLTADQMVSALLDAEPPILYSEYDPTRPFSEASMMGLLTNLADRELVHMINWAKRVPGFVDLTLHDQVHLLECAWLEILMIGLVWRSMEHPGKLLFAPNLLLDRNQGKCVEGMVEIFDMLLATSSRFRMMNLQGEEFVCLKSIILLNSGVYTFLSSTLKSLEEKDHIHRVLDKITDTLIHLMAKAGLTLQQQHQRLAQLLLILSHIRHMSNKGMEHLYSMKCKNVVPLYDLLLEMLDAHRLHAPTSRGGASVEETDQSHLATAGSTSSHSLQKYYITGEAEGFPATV

Biological target: estrogen receptors in MCF7 cells (Homo sapiens (Human), UniProt P03372)
Assay: Degradation of estrogen receptors in MCF7 cells (in-cell western)
Type: cell-based
Settings: 24 hours, 0.1 µM fulvestrant = 100% degradation control, read-out: Maximum degradation rate
Method: The purpose of the experiment is to determine the degradation activity of the compounds of the present invention on endogenously expressed estrogen receptors in MCF7 cells, and to evaluate the activity of the compounds according to DC50 and maximum degradation efficiency.
MCF7 cells (ATCC, HTB-22) were cultured in DMEM (Gibco, 11995-065) complete medium containing 10% fetal bovine serum. On the first day of the experiment, MCF7 cells were inoculated in a 384-well plate at a density of 3000 cells/well using the complete medium, and cultured in a 37° C., 5% CO2 cell incubator. The compounds to be tested were dissolved in DMSO with a stock concentration of 10 mM, the solution was diluted with Echo 550 (Labcyte Inc.) and added to the cell culture plate. Each compound with the starting concentration for treatment of 100 nM was subjected to 3-fold gradient dilution with 9 concentration points. […] After washing with PBST 3 times, the fluorescence signal of each well was read using Odyssey CLx, and the value of Chanel 800 (ER)/Chanel 680 (GAPDH) was calculated. The wells treated with 0.1 µM fulvestrant were used as the 100% degradation control, and the degradation rate at each concentration point was calculated. The data were analyzed and processed by XlLfit, and the degradation activity DC50 and the maximum degradation rate Imax of each compound were calculated.

Compound `C[C@@H]1Cc2c([nH]c3ccccc23)C(c2c(F)cc(N[C@H]3CCN(CCCF)C3)cc2F)N1CC(F)(F)CO` (stereo in doubt) [Example 7, 3-((1S,3R)-1-(2,6-difluoro-4-(((S)-1-(3-fluoropropyl)pyrrolidin-3-yl)amino)phenyl)-3-methyl-3,4-dihydro-1H-pyridino [3,4-b]indole-2(9H)-yl)-2,2-difluoropropane-1-ol] has a Dmax of 99%.
